Earlier results on one substance are cited in patent US11939397B2, “ENTPD2 antibodies, combination therapies, and methods of using the antibodies and combination therapies” (Novartis AG, priority 2018, dated 2024).

Amino acid sequences for entries named in this document (tags omitted).
UniProt P14902, whole entry, species assumed: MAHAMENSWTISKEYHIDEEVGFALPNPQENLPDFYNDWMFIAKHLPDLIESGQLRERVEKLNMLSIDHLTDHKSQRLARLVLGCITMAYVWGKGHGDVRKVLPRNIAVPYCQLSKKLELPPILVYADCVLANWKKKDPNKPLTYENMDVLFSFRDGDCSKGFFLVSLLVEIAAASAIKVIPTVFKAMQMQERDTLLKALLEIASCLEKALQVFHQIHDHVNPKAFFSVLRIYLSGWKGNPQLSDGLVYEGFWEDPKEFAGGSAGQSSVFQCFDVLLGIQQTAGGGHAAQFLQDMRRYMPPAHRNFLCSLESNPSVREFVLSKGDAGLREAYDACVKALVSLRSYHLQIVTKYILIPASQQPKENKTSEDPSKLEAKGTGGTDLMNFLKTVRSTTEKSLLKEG

This series addresses indoleamine 2,3-dioxygenase (IDO1) (Homo sapiens, UniProt P14902). The conditions noted are these: cited from earlier work.

For the substance “(4E)-4-[(3-chloro-4-fluoroanilino)-nitrosomethylidene]-1,2,5-oxadiazol-3-amine [Epacadostat]”, the “selectivity over other related enzymes such as IDO2 or TDO” value is given as “highly selective”.
